Amino acid sequences for entries named in this document (tags omitted). A change or cut given only in a name is not applied to a line headed by its entry.
UniProt P35372, whole entry: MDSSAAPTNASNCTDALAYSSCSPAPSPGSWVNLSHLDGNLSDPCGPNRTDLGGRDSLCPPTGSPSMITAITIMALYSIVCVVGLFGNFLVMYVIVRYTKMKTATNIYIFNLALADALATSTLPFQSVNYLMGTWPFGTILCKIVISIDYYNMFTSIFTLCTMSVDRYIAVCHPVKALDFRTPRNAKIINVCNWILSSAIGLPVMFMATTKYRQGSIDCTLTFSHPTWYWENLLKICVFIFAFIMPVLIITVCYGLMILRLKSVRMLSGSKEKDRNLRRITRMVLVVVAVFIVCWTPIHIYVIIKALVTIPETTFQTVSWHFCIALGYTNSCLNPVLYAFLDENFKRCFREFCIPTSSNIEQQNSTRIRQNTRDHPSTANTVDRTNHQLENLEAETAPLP
UniProt P41145: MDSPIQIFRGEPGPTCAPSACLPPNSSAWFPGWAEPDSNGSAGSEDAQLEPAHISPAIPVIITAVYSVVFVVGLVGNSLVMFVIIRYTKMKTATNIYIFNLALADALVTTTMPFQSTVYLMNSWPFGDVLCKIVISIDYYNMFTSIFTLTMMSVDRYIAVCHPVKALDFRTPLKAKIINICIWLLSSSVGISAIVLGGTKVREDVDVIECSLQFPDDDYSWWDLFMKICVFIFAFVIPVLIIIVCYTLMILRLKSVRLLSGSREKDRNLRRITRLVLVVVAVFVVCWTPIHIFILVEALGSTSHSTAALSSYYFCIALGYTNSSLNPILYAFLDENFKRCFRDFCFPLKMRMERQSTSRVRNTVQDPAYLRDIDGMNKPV

In publication PMC5785446 (Alcoholism, clinical and experimental research, 2018):

How the values were obtained:
[1] = biological target: human MOP receptor (Homo sapiens, UniProt P35372); assay: biochemical
[2] = biological target: human KOP receptor (Homo sapiens, UniProt P41145); assay: biochemical

CC(C)C[C@H](NC(=O)[C@H](CCCCN)NC(=O)[C@H](CCCN=C(N)N)NC(=O)[C@H](C)NC(=O)[C@H](CO)NC(=O)[C@H](CCCCN)NC(=O)[C@H](CCCN=C(N)N)NC(=O)[C@H](C)NC(=O)CNC(=O)[C@@H](NC(=O)[C@H](Cc1ccccc1)NC(=O)CNC(=O)CNC(=O)[C@@H](N)Cc1ccccc1)[C@@H](C)O)C(=O)N[C@@H](C)C(=O)N[C@@H](CC(N)=O)C(=O)N[C@@H](CCC(N)=O)C(=O)O [N/OFQ]
EC50 [1]: > 10 µM | EC50 [2]: > 10 µM
